IC50 data for one compound are collected here from ChEMBL document CHEMBL1128670, “Hypoxia-selective antitumor agents. 11. Chlorambucil N-oxide: a reappraisal of its synthesis, stability, and selective toxicity for hypoxic cells” (J Med Chem, 1995).

One assay has as its system CHO-AA8. In words: Growth inhibition activity was measured in repair proficient AA8 cells under aerobic conditions (4 hours drug exposure).
In another assay the test system is UV4. As to the kind of experiment: Growth inhibition activity was measured in repair deficient UV4 cells under aerobic conditions (4 hours drug exposure).

Consider `O=C(O)CCCc1ccc([N+]([O-])(CCCl)CCCl)cc1`, for which the figures for the IC50 with CHO-AA8 and in the assay with UV4 were 46 µM and 4.9 µM, respectively.
